# Measured values: US20260384421A1, “NOVEL COMPOUNDS THAT CAN BE USED AS THERAPEUTIC AGENTS” (published 2026)
# Like-named read-outs stand apart in the source and are kept apart here.
# Key:
# [1] = system: SK-MEL-5 melanoma cells; test: treatment-sensitization activity assay with PLX-4720 on SK-MEL-5 cells; conditions: PLX-4720 10 μM or compound of formula (I) 1 μM alone; 3 days; SK-MEL-5
# Source text: Sensitization through a compound to other treatments can be assessed by investigating the growth behaviour of cancer cells being not or only poorly responsive to said other treatments in the presence of the sensitizing compound in a combination treatment. The sensitization activity of a compound falling under general formula (I) was investigated in a combination treatment with the B-Raf-V600E inhibitor PLX-4720 (MedChemExpress, #HY-51424) in a viability assay on PLX-4720-poorly responsive SK-MEL-5 melanoma cells harbouring a BRAF V600E mutation. SK-MEL-5 cells, obtainable from the American Type Culture Collection (ATCC) under the accession number ATCC-HTB-70, were cultivated in EMEM medium (ATCC, #30-2003) containing 10% fetal bovine serum (Fisher Scientific, Gibco™ #A31608) at 37 °C and 5% CO2. The viability assay was performed according to the protocol as described above using alamarBlue® (Bio-Rad Serotec GmbH, BUF012B). To this end, SK-MEL-5 cells were seeded into 96-well plates (CORNING #3598) suitable for fluorescence assays at a cell number of 4'000 cells per well containing 10 μL per well of 10× compound working solutions or the empty carrier DMSO as control. The cells were treated with compounds at final concentrations of 1 μM for the compound of formula (I) and 10UM for PLX-4720. […] Relative viability values were calculated from the fluorescence intensities as described above. […]
# [2] = system: MDA-MB-231 cells; test: combination treatment activity assay with syrosingopine on MDA-MB-231 cells; conditions: 2 days
# Protocol: The synergistic or additive activity of a compound falling under general formula (I) was investigated in a combination treatment with the MCT1/MCT4 inhibitor syrosingopine (TargetMol, #TN2252) in a viability assay on MDA-MB-231 cells cultured in D-Glucose-containing RPMI 1640 medium (Fisher Scientific, Gibco™ #72400) supplemented with 10% fetal bovine serum (Fisher Scientific, Gibco™ #A31608) and on HCT-116 cells cultured as described above. The viability assay was performed according to the protocol as described above using alamarBlue® (Bio-Rad Serotec GmbH, BUF012B). To this end, according cells were seeded into 96-well plates (CORNING, #3598) suitable for fluorescence assays at a cell number of 7'000 cells per well for MDA-MB-231 and 7'000 cells per well for HCT-116, and incubated over night at 37 °C and 5% CO2. Then, in a volume of 90 μL medium per well the cells were treated with compounds at a final concentration of 10 nM for the compound of formula (I) and 10 μM for syrosingopine by adding 10 μL per well of a 10× compound working solution or the empty carrier DMSO as control. The 10× working solutions were prepared by diluting both compounds from their 2000×DMSO stock-solutions together 1:200 each in H2O (Water For Injection, WFI, Fisher Scientific, Gibco™ #A12873) for the combination treatment, or by diluting their 2000×DMSO stock-solutions individually with the empty carrier DMSO 1:200 in H2O for the corresponding single treatments. Addition of the compound working solutions into the wells yielded a final assay volume of 100 μL per well containing 0.1% v/v DMSO. After 2 days incubation at 37 °C and 5% CO2, the cells were subjected to the alamarBlue® Proliferation Assay as described above. Relative viability values were calculated from the fluorescence intensities as described above.
# A decrease in relative viability upon single treatment was not observed for the tested compounds of formula (I) and less than 25% for syrosingopine. […]
# [3] = system: HCT-116 cells; test: combination treatment activity assay with syrosingopine on HCT-116 cells; conditions: syrosingopine 10 μM or compound of formula (I) 10 nM alone, 2 days
# Protocol: The synergistic or additive activity of a compound falling under general formula (I) was investigated in a combination treatment with the MCT1/MCT4 inhibitor syrosingopine (TargetMol, #TN2252) in a viability assay on MDA-MB-231 cells cultured in D-Glucose-containing RPMI 1640 medium (Fisher Scientific, Gibco™ #72400) supplemented with 10% fetal bovine serum (Fisher Scientific, Gibco™ #A31608) and on HCT-116 cells cultured as described above. The viability assay was performed according to the protocol as described above using alamarBlue® (Bio-Rad Serotec GmbH, BUF012B). To this end, according cells were seeded into 96-well plates (CORNING, #3598) suitable for fluorescence assays at a cell number of 7'000 cells per well for MDA-MB-231 and 7'000 cells per well for HCT-116, and incubated over night at 37 °C and 5% CO2. Then, in a volume of 90 μL medium per well the cells were treated with compounds at a final concentration of 10 nM for the compound of formula (I) and 10 μM for syrosingopine by adding 10 μL per well of a 10× compound working solution or the empty carrier DMSO as control. […] Relative viability values were calculated from the fluorescence intensities as described above. […]
# [4] = system: CF21.T cells; test: alamarBlue proliferation assay with CF21.T cells; conditions: read-out: Activity on CF21.T: IC50; CF21.T canine cells, DMEM medium, 10% FBS
# [5] = system: BHY cells; test: alamarBlue proliferation assay with BHY cells; conditions: read-out: Activity on BHY: IC50, DMEM medium, 10% FBS
# [6] = system: LL/2 cells; test: alamarBlue proliferation assay with LL/2 cells; conditions: read-out: Activity on LL/2: IC50; LL/2 murine Lewis lung carcinoma cells, DMEM medium, 10% FBS
# [7] = system: HPEKp cells; test: proliferation assay with human epidermal keratinocyte progenitors (HPEKp), selectivity versus MDA-MB-231; conditions: read-out: Activity (HPEK); HPEK cells (HPEKp); antiproliferative activity, class by IC50
# [8] = system: HCT-116 cells; test: alamarBlue proliferation assay with HCT-116 cells; conditions: read-out: Activity on HCT-116: IC50, McCoy's 5A medium, 10% FBS
# [9] = system: A-375 cells; test: alamarBlue proliferation assay with A-375 cells; conditions: read-out: Activity on A-375: IC50, DMEM medium, 10% FBS
# [10] = system: NB-4 cells; test: alamarBlue proliferation assay with NB-4 cells; conditions: read-out: Activity on NB-4: IC50, RPMI 1640 medium, 10% FBS
# [11] = system: A-549 cells; test: alamarBlue proliferation assay with A-549 cells; conditions: read-out: Activity on A-549: IC50, DMEM medium, 10% FBS
# [12] = system: MDA-MB-231 cells; test: alamarBlue proliferation assay with MDA-MB-231 cells (glucose-free Leibovitz's L-15 medium)
# [13] = system: A-431 cells; test: alamarBlue proliferation assay with A-431 cells; conditions: read-out: Activity on A-431: IC50, DMEM medium, 10% FBS
# [14] = system: HEP-G2 cells; test: alamarBlue proliferation assay with HEP-G2 cells; conditions: read-out: Activity on HEP-G2: IC50, RPMI 1640 medium, 10% FBS
# [15] = system: TANQUE cells; test: alamarBlue proliferation assay with TANQUE cells; conditions: read-out: Activity on TANOUE: IC50, RPMI 1640 medium, 10% FBS
smiles,measurement,setting,value
CCCS(=O)(=O)Nc1ccc(F)c(C(=O)c2c[nH]c3ncc(Cl)cc23)c1F,decrease in relative viability upon single treatments,[1],less than 20%
CCOC(=O)Oc1c(OC)cc(C(=O)O[C@@H]2C[C@@H]3CN4CCc5c([nH]c6cc(OC)ccc56)[C@H]4C[C@@H]3[C@H](C(=O)OC)[C@H]2OC)cc1OC,decrease in relative viability upon single treatment,"[2]; syrosingopine 10 μM alone, MDA-MB-231",less than 25%
same,decrease in relative viability upon single treatment,[3],less than 5%
COC1CCC(c2ccc(Oc3ccc(C(=O)N4CCN(Cc5ccc(OC(F)(F)F)cc5)CC4)nc3)c(CO)c2)CC1 (centres unmarked),IC50,[4],≤ 200 nM
same,IC50,[5],≤ 200 nM
same,IC50,[6],≤ 200 nM
same,IC50,[7],< 10000 nM
same,Activity as treatment enhancer (additional viability decrease as compared to single treatment with syrosingopine),"[2]; compound 10 nM + syrosingopine 10 μM, D-glucose-containing RPMI 1640",viability decrease >45%
same,IC50,[8],≤ 200 nM
same,IC50,[9],≤ 200 nM
same,IC50,[10],≤ 200 nM
same,IC50,[11],≤ 200 nM
same,IC50,"[12]; read-out: Activity (MDA), MDA-MB-231 cells, antiproliferative activity, class by IC50",< 1000 nM
same,IC50,"[12]; read-out: Activity on MDA-MB-231 (IC50), glucose-free Leibovitz's L-15, 10% FBS, day 5, alamarBlue",≤ 200 nM
same,IC50,[13],≤ 200 nM
same,IC50,[14],≤ 200 nM
same,IC50,[15],≤ 200 nM
